Source: patent US8383386

Molecular target: prothrombin (UniProt P00734)

## plasma-derived factor Xa
  Km ± SD (µM), prothrombin cleavage by FXa assembled in prothrombinase: 0.42 µM
  Vmax/Et ± SD (nM IIa/min/nM E), prothrombin cleavage (nM IIa/min/nM E): 2420
  Vmax/Et · Km (µM^-1 · s^-1), prothrombin cleavage: 9.6e+07 M⁻¹ s⁻¹
